Only a part is listed here, and it is no random draw. Some results for these compounds are left out of this collection, so the calls shown say nothing about other tests. Active and inactive are the calls of the source. Rule as the data show it: active = inhibition above about 40%.

Protein sequences, listed by entry. Tags and fused reporters are not part of them.
UniProt Q07817, whole entry: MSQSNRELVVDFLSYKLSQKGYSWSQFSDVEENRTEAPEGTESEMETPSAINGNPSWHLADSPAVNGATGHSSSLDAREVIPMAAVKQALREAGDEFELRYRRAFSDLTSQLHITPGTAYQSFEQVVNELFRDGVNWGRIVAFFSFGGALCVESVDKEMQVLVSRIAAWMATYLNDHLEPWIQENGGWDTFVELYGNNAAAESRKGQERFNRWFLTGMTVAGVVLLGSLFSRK

The target of the test is Bcl-2-like protein 1 (Homo sapiens) (UniProt Q07817). Description: Bcl-XL/Bim peptide interaction blockers – biochemical, multiplexed, bead flow cytometry, human Bcl-XL, primary screen (AID 1007). Particulars: Bim peptide-Bcl-XL binding, fluorescence, at 10 µM, stronger effect = higher value. On the technique in general: A flow cytometer gives signals particle by particle.
In the case of `O=C(OC1CN2CCC1CC2)C(CO)(c1ccccc1)c1ccccc1` (centres undefined), the inhibition was inactive: -3%.

Regarding `CN(C)c1cccc(C(=O)NCC2(N(C)C)CCCCC2)c1`, the inhibition is inactive: -9%.

Take `COc1cccc(C(=O)NCC2(N3CCCCC3)CCCCC2)c1`: the inhibition is inactive: -3%.

For `Cc1ccccc1C(=O)NCC1(N2CCCCC2)CCCCC1`, the inhibition was inactive: -2%.

Take `CN(C)C1CCCC1OC(=O)C(O)(c1ccccc1)c1ccccc1` (centres undefined): the inhibition was inactive: -7%.

With `CCN1CCCC(OC(=O)C2(O)c3ccccc3C=Cc3ccccc32)C1` (centres undefined), the inhibition is inactive: -7%.

For the compound `C=CCN1CCN(CCOC(=O)C(O)(c2ccccc2)c2ccccc2)CC1`, the inhibition was inactive: 0%.

On to `O=C(NCC1(N2CCCCC2)CCCCC1)c1cc([N+](=O)[O-])ccc1Cl`, for which the inhibition was inactive: 3%.

As to `CC(C)N1C(=O)CC2(CCN(CCOC(=O)C(O)(c3ccccc3)c3ccccc3)CC2)C1=O`, the inhibition is inactive: -2%.

Broadly, the inhibition is the relative decrease from the control value, in per cent.

Source of the values: PubChem BioAssay AID1007 (NMMLSC, 2008).
